{"source": "paper PMC6987189", "about": "“Native aggregation is a common feature among triosephosphate isomerases of different species” (Scientific Reports, 2020)", "proteins": {"B1": {"name": "HsTIM (Homo sapiens) (protein)", "chain": "APSRKFFVGGNWKMNGRKQSLGELIGTLNAAKVPADTEVVCAPPTAYIDFARQKLDPKIAVAAQNCYKVTNGAFTGEISPGMIKDCGATWVVLGHSERRHVFGESDELIGQKVAHALAEGLGVIACIGEKLDEREAGITEKVVFEQTKVIADNVKDWSKVVLAYEPVWAIGTGKTATPQQAQEVHEKLRGWLKSNVSDAVAQSTRIIYGGSVTGATCKELASQPDVDGFLVGGASLKPEFVDIINAKQ"}}, "substrate": "O=C[C@H](O)COP(=O)(O)O", "assay": "purified protein", "settings": "GAP to DHAP direction, 25 °C, 100 mM TEA, 10 mM EDTA, 0.2 mM NADH, GAP 0.3 to 3 mM"}
{"protein": "B1", "values": [{"measurement": "Km", "value": "0.22 ± 0.03", "unit": "mM"}, {"measurement": "kcat", "value": 3840, "unit": "s⁻¹"}, {"measurement": "kcat/Km", "value": "1.7e+07", "unit": "M⁻¹ s⁻¹"}]}
